Experimental findings from PubChem BioAssay AID1012 (Sanford-Burnham Center for Chemical Genomics, 2008) are described below.

Sequences of proteins named here, by UniProt entry; tags and fusion partners are left off. A change or cut given only in a name is not applied to a line headed by its entry.
UniProt P05186: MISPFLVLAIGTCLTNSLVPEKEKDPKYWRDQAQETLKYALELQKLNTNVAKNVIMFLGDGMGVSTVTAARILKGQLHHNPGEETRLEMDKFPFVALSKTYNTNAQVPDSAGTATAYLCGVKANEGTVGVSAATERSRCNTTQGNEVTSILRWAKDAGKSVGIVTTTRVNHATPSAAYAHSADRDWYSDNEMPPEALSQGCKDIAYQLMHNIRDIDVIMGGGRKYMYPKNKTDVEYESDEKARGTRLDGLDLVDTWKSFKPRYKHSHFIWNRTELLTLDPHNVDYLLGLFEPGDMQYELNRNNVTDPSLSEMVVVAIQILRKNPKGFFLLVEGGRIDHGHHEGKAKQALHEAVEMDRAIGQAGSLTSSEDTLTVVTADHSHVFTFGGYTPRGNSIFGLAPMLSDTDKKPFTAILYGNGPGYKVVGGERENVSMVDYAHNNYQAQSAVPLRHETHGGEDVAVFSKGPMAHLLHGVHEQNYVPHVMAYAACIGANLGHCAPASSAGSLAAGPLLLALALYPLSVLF

Only a part is listed here, and it is no random draw. Activity calls are given as the source filed them.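 How the source made its calls: active means tissue-nonspecific alkaline phosphatase inhibition above about 50% at 20 µM in the single-dose screen (limit read from the data); inactive means the rest.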

This assay deals with Alkaline phosphatase, tissue-nonspecific isozyme (Homo sapiens) (UniProt P05186). As to the kind of experiment: human TNAP enzyme inhibitors, primary screen, biochemical, luminescent, no phosphate acceptor, uHTS (AID 1012).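 Further: 0% = DMSO negative control and 100% = EDTA positive control.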 As to conditions: purified TNAP, CDP-star luminescence, 30 min; at 20 µM; stronger effect = higher value.
For orientation: inhibition means the change of the read-out against control, counted positive when it falls. As for `Clc1ccc(Cl)c(NC2=NCC(CBr)S2)c1` (centres undefined), the inhibition is inactive: -25.1%.
Then `CN1CCCC(OC(=O)C(c2ccccc2)c2ccccc2)C1` (centres undefined), with inactive: -7.4%; and `COc1ccccc1OP(=O)(Nc1ccc(C)cn1)Oc1ccccc1OC`, with inactive: -9.7%; and `Cc1ccc(N/C(=N/P(=O)(N2CCOCC2)N2CCOCC2)N2CCOCC2)cc1`, with inactive: -10.7%.
Then `NC(=O)c1cc([N+](=O)[O-])cc([N+](=O)[O-])c1N`, with inactive: -1.4%; and `Cc1c2non([O-])c-2c(C)[n+](=O)[n+]1[O-]`, with inactive: 2.3%.
Turning to `O=C(NC(Sc1ccncn1)C(Cl)(Cl)Cl)c1ccccc1` (centres undefined), the inhibition is inactive: -21.7%.
Then `Oc1ccccc1CNc1ccccn1`, with inactive: -13%.
`CC(C)CC(=O)NC(Sc1ccc(Cl)cc1)C(Cl)(Cl)Cl` (centres undefined): the inhibition is inactive: 7%.
Take `CCOP(=O)(Nc1ccccc1)OCC`: the inhibition is inactive: -2.3%.
Consider `Cc1cc(SC(NC(=O)c2ccc(F)cc2)C(Cl)(Cl)Cl)ncn1` (centres undefined), for which the inhibition is inactive: -2%.
For the molecule `CCN(N=Nc1nonc1N)c1nonc1N`, the inhibition was inactive: -4%.
Consider `O=[N+]([O-])c1ncn(CCn2ncnc2[N+](=O)[O-])n1`, for which the inhibition was inactive: -6.3%.
`CCc1nc2c(n1)c1c(non1O)c1c2no[n+]1[O-]`: the inhibition was inactive: -14.2%.
With `O=[N+]([O-])c1cc([N+](=O)[O-])c(CCNc2ccccc2)c([N+](=O)[O-])c1`, the inhibition was inactive: 0.2%.
Take `Cc1ccc(NP(=O)(Oc2ccccc2)Oc2ccccc2)nc1`: the inhibition was inactive: -1.7%.
Turning to `O=[N+]([O-])c1cccc2n[nH]nc12`, the inhibition is inactive: -13.9%.
Then `CC(=O)N1C2C3N(C(C)=O)C1C1N(C(C)=O)C(C(N1C(C)=O)N3C(C)=O)N2C(C)=O`, with inactive: -4.1%.
As to `COc1ccc(C2=NCC(CBr)S2)cc1` (centres undefined), the inhibition is inactive: -4%.
For `CC1CCN(C(=O)Oc2c(Cl)cc(Cl)c3cccnc23)CC1`, the inhibition is inactive: -3.7%.
`CN(C)C(=O)OCCc1n(C)cc[n+]1C`: the inhibition is inactive: -9.1%.
`CC(C)=N/N=C(\N)N[N+](=O)[O-]`: the inhibition was inactive: -7.1%.
As for `CCN(/C(=N/P(=O)(N1CCOCC1)N1CCOCC1)N1CCOCC1)c1ccc(OC)cc1`, the inhibition was inactive: -10%.
For `c1nnnn1CCn1cnnn1`, the inhibition was inactive: -12.4%.
`CC(C)C(=O)NC(Sc1ccccc1)C(Cl)(Cl)Cl` (centres undefined): the inhibition is inactive: 3.7%.
`O=P(Nc1nccs1)(c1ccccc1)c1ccccc1`: the inhibition was inactive: -6.4%.
Then `O=P(Nc1ccccn1)(c1ccc(Br)cc1)c1ccc(Br)cc1`, with inactive: -1.4%; and `O=C(OC1CN2CCC1CC2)c1cccc(Cl)c1` (centres undefined), with inactive: -6.3%; and `C(Cc1nn[nH]n1)Cc1nn[nH]n1`, with inactive: -8.9%.
As to `CC(=O)NC(SC(=S)N(C)C)C(Cl)(Cl)Cl` (centres undefined), the inhibition is inactive: -0.8%.
For `CCOC(=O)NC(Sc1ccccc1)C(Cl)(Cl)Cl` (centres undefined), the inhibition was inactive: -1.3%.
In the case of `c1ccc(-c2nn[nH]n2)c(-c2nn[nH]n2)c1`, the inhibition is inactive: -1.9%.
On to `CCNC(=S)/N=C(\N)N[N+](=O)[O-]`, for which the inhibition is inactive: -6.4%.
Turning to `O=C(NC1CCS(=O)(=O)C1)NP(=S)(Oc1ccccc1)Oc1ccccc1` (centres undefined), the inhibition was inactive: -16.4%.
Then `O=c1c2cc([N+](=O)[O-])ccc2[nH]c2c([N+](=O)[O-])cc([N+](=O)[O-])cc12`, with inactive: 33%; and `CCC(=O)N1C2C3N(C(=O)CC)C1C1N(C(=O)CC)C(C(N1C(=O)CC)N3C(=O)CC)N2C(=O)CC`, with inactive: -1.6%; and `Cc1ccc(OP(=O)(Nc2ccccn2)Oc2ccc(C)cc2)cc1`, with inactive: -5.6%.
For `CC(=O)NC(SC(=S)N(CC(C)C)CC(C)C)C(Cl)(Cl)Cl` (centres undefined), the inhibition was inactive: 6.6%.
As to `COC(=O)c1cc2c(s1)N=C(c1ccccc1)N(C)P2(=O)N1CCOCC1` (centres undefined), the inhibition was inactive: -9.9%.
For `CC(C)(C)C(=O)NC(Sc1ccccc1)C(Cl)(Cl)Cl` (centres undefined), the inhibition was inactive: -3.4%.
In the case of `CCOc1ccc(C2=NCC(CBr)S2)cc1` (centres undefined), the inhibition is inactive: -7.4%.
As for `O=P1(Nc2nc3ccc(Cl)cc3s2)COc2ccccc2O1` (centres undefined), the inhibition is inactive: -8.2%.
In the case of `CC(=O)Nc1ccc(Oc2c([N+](=O)[O-])cc([N+](=O)[O-])cc2[N+](=O)[O-])cc1`, the inhibition is inactive: 4.8%.
Turning to `Cc1cccc(OCC(=O)OC2CN3CCC2CC3)c1` (centres undefined), the inhibition is inactive: -13.1%.
Then `COc1cc(C(=O)NCC2(N3CCOCC3)CCCCC2)cc(Cl)c1OC(C)C`, with inactive: -14.7%; and `CCOP(=O)(Nc1cccc2ccccc12)OCC`, with inactive: -3.8%; and `COc1cc(C2NCCC3(OCCO3)C2(C)C)cc(OC)c1OC` (centres undefined), with inactive: -17.2%.
Regarding `Cc1ccc(NCCc2c([N+](=O)[O-])cc([N+](=O)[O-])cc2[N+](=O)[O-])cc1`, the inhibition is inactive: -0.2%.
As for `O=P(Nc1nccs1)(c1ccccc1)c1nc2ccccc2s1` (centres undefined), the inhibition was inactive: -5.3%.
In the case of `O=P(Nc1nccs1)(Oc1ccccc1)Oc1ccccc1`, the inhibition is inactive: -4.5%.
As to `CCOP1(=S)c2c(C)nn(CCC#N)c2N=C(c2ccccc2F)N1C` (centres undefined), the inhibition was inactive: -8.4%.
As for `CCOP1(=S)c2c(C)nn(CCC#N)c2N=C(c2ccc(F)cc2)N1C` (centres undefined), the inhibition was inactive: -7.8%.
As for `O=[N+]([O-])c1ccc2c(c1)nnn2O`, the inhibition was inactive: -9.8%.
For the molecule `CN(C)C1(CNC(=O)c2ccc(S(C)(=O)=O)cc2)CCCCC1`, the inhibition was inactive: -9.9%.
`CC1CCC(C(C)C)C(OP(=O)(Nc2ccccn2)c2ccccc2)C1` (centres undefined): the inhibition is inactive: -16.5%.
Take `Cc1nn(-c2ccccc2)c2c1P(=O)(N1CCOCC1)N(C)C(c1ccccc1)=N2` (centres undefined): the inhibition is inactive: -12%.
Then `O=P1(Nc2ccc(Br)cn2)COc2ccccc2OC1`, with inactive: -5.1%; and `Cc1ccc(OCC(=O)OC2CN3CCC2CC3)cc1` (centres undefined), with inactive: -5.5%; and `O=P1(Nc2ncccn2)COc2ccccc2OC1`, with inactive: 9%.
For the molecule `Clc1n[nH]nc1-c1nn[nH][15n]1`, the inhibition is inactive: -7.8%.
For the molecule `O=P1(Nc2ccccn2)COc2ccccc2OC1`, the inhibition is inactive: -4.7%.
For `CC(C)/C=N\N=C(\N)N[N+](=O)[O-]`, the inhibition is inactive: -2.4%.
In the case of `CN(C(=O)Cc1ccc(Cl)c(Cl)c1)[C@@H]1CCCC[C@H]1N1CCCC1`, the inhibition was inactive: -11.9%.
Take `O=C(COc1ccccc1)OC1CN2CCC1CC2` (centres undefined): the inhibition is inactive: -6.1%.
Regarding `COP1(=S)c2c(C)nn(CCC#N)c2N=C(c2ccc(F)cc2)N1C` (centres undefined), the inhibition is inactive: -3.7%.
Then `CCC(C)N(CC(C)C)C(=S)SC(NC(C)=O)C(Cl)(Cl)Cl` (centres undefined), with inactive: 10.3%.
Take `Cc1cc(SC(NC(=O)c2ccccc2)C(Cl)(Cl)Cl)nc(C(C)C)n1` (centres undefined): the inhibition was inactive: -30%.
As for `O=P(Nc1ccccn1)(c1cccc2ccccc12)c1cccc2ccccc12`, the inhibition is inactive: -5.1%.
In the case of `Cc1cc(SC(NC=O)C(Cl)(Cl)Cl)ncn1` (centres undefined), the inhibition is inactive: -2.6%.
`Cc1ccc2nc3c(c(C)c2c1)CC(C(Cl)Cl)S3` (centres undefined): the inhibition was inactive: -10.7%.
As for `O=[N+]([O-])c1cc([N+](=O)[O-])c(-c2ccn[nH]2)s1`, the inhibition was inactive: 6.3%.
With `CCN(CC)C(=S)SC(NC=O)C(Cl)(Cl)Cl` (centres undefined), the inhibition was inactive: -6.4%.
Take `CC(C)NC(=O)NP(=O)(Oc1ccccc1)Oc1ccccc1`: the inhibition was inactive: -10.2%.
Then `ClCCSc1nnc(-c2cccnc2)o1`, with inactive: -1.9%; and `COc1ccc2nc(NP(=O)(c3ccccc3)c3ccccc3)sc2c1`, with inactive: -20%.
Take `Cc1c2c(nc3ccccc13)SC(C(Cl)Cl)C2` (centres undefined): the inhibition is inactive: -2%.
Regarding `Cc1cc(=O)[nH]c(N[N+](=O)[O-])n1`, the inhibition was inactive: -0.3%.
For `O=C(OC1CN2CCC1CC2)C12CC3CC(CC(C3)C1)C2` (centres undefined), the inhibition was inactive: -14.9%.
For the molecule `COc1ccc(N/C(=N/P(=O)(N2CCOCC2)N2CCOCC2)N2CCOCC2)cc1`, the inhibition is inactive: -7%.
